Structures are written as SMILES.

The source of these data is ChEMBL document CHEMBL1138625, “Synthesis and evaluation of novel phenoxypropanolamine derivatives containing acetanilides as potent and selective beta3-adrenergic receptor agonists” (Bioorg Med Chem, 2009).

For assay [1], the target named is Beta-3 adrenergic receptor (Homo sapiens) (UniProt P13945).
Assay [2] has as its target Beta-1 adrenergic receptor (Homo sapiens) (UniProt P08588). The assay is described as follows: Agonist activity at human adrenergic receptor expressed in CHO cells assessed as cAMP accumulation.

Turning to `O=C(Cc1ccccn1)Nc1ccc(CCNC[C@H](O)COc2cccc3[nH]c(=O)[nH]c23)cc1`, the EC50 – broadly, the midpoint of the concentration-response curve – in assay [1] was 0.28 µM; in assay [2], over 100 µM.
For the compound `O=C(Cc1ccccn1)Nc1ccc(CCNC[C@H](O)COc2cccnc2)cc1`, the concentration for a half-maximal effect (EC50) in assay [1] is 0.18 µM; in assay [2], over 100 µM.
In the same order, the values of `O=C(Cc1cccc(Cl)n1)Nc1ccc(CCNC[C@H](O)COc2ccccc2)cc1` are 0.043 µM and 0.055 µM.
In the same order, the values of `O=C(Cc1ccccn1)Nc1ccc(CCNC[C@H](O)COc2cccc3[nH]c4ccccc4c23)cc1` are 0.25 µM and over 100 µM.
For `O=C(Cc1nccn1-c1ccccc1)Nc1ccc(CCNC[C@H](O)COc2ccccc2)cc1`, the EC50 in assay [1] was 0.65 µM; in assay [2], over 100 µM.
On the same counts, the results for `O=C(Cc1nccn1Cc1ccc2ccccc2c1)Nc1ccc(CCNC[C@H](O)COc2ccccc2)cc1` are 0.26 µM and 0.069 µM.
Turning to `O=C(Cc1nc2ccccc2n1Cc1ccccc1)Nc1ccc(CCNC[C@H](O)COc2ccccc2)cc1`, the EC50 is 0.14 µM in assay [1] and over 100 µM in assay [2].
In the same order, the values of `O=C(Cc1cn(Cc2ccccc2)cn1)Nc1ccc(CCNC[C@H](O)COc2ccccc2)cc1` are 0.13 µM and 0.28 µM.
In the same order, the values of `O=C(Cc1nccn1Cc1ccccc1)N1CCCc2cc(CCNC[C@H](O)COc3ccccc3)ccc21` are 0.17 µM and 0.12 µM.
